PMC8566969, “Comparison of viral RNA–host protein interactomes across pathogenic RNA viruses informs rapid antiviral drug discovery for SARS-CoV-2” (Cell Research, 2021)

Chains of the proteins cited; added tags and fusions are not shown. Residues count along the entry.
UniProt P48735, 40-452: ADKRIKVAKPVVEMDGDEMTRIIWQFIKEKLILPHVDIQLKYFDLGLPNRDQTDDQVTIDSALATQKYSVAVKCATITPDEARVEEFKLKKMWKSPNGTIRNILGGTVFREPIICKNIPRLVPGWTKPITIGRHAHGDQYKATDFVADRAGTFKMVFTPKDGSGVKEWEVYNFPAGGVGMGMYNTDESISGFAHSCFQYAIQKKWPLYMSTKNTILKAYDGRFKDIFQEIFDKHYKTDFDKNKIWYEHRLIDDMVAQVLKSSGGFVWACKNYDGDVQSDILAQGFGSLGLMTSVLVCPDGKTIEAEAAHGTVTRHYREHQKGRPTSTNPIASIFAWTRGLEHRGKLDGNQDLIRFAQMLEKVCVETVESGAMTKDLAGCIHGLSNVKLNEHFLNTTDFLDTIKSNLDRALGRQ

Columns and labels:
IDH2 [1] = target: T1, IDH2 (Homo sapiens, UniProt P48735); assay: biochemical
IDH2 [2] = target: T1, IDH2

SMILES: CC(C)(O)CNc1nc(Nc2ccnc(C(F)(F)F)c2)nc(-c2cccc(C(F)(F)F)n2)n1 [Enasidenib, 2-Methyl-1-(4-(6-(trifluoromethyl)pyridin-2-yl)-6-(2-(trifluoromethyl)pyridin-4-ylamino)-1,3,5-triazin-2-ylamino)propan-2-ol]
- Kd (IDH2 [1]): 610 nM
- CETSA target engagement, IDH2 (IDH2 [2]): binding to IDH2
